# Apparent affinities of Ab-14 variants for a coronavirus HR2 peptide

Source: Engelhart et al. 2022 (doi:10.1038/s41597-022-01779-4), MIT Lincoln Laboratory and A-Alpha Bio; data file from the FLAb repository.

Antigen: PDVDLGDISGINAS, a 14-residue peptide of the SARS-CoV-2 spike HR2 region.

Parent: Ab-14, a human scFv built as VH, three GGGGS repeats, VL. Only the CDRs of the light chain vary.
VH: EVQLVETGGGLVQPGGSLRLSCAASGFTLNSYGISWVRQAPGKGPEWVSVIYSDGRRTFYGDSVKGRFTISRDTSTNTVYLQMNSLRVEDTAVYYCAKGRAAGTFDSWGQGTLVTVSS
VL: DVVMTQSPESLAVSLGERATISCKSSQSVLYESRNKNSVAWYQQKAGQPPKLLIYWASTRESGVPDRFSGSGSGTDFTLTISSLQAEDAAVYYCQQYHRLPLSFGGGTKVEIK

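The starting antibody came from a phage panning campaign against this peptide. The library (AAYL50) carries one to three amino acid substitutions per variant, with no insertions or deletions. In AlphaSeq, yeast of one mating type display the scFv and yeast of the other type display the target. Pairs that bind mate more often; barcode pairs of the diploids are counted by sequencing. Scores were corrected for input abundance and mapped to Kd with protein pairs of known affinity run in the same pool. There are three technical replicates.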

Positions count from residue 1 of the parent VL; Q27M puts M in place of Q. This list gathers variants with a substitution at Q27 (VL, numbered from residue 1). The Kd shown is the geometric mean over detected replicates; a lower Kd is a better binder. A pair that was not seen in any replicate is written "not detected"; this usually means weak binding, but a binder can also be missed. For reference, the parent read 4.4 nM as the reference entry and 48 nM as a member of this library.

changes	apparent Kd	detected	control signals
Q27M S58P T59G	100 µM	3 of 3	3 of 9
Q27G	2.0 nM	3 of 3	0 of 9
Q27Y L30I W56F	770 nM	3 of 3	2 of 9
Q27C	18 nM	3 of 3	5 of 9
Q27V Q95C	not detected	0 of 3	3 of 9
Q27T W56K L100A	not detected	0 of 3	1 of 9
Q27K A40I P101K	3.3 µM	1 of 3	1 of 9
S26K Q27A E61A	530 nM	2 of 3	0 of 9
Q27W T59E S103W	530 nM	3 of 3	0 of 9
S26M Q27Y Q96M	not detected	0 of 3	1 of 9
Q27T V39Y S62D	260 nM	1 of 3	1 of 9
Q27E E32Q Q96A	44 nM	3 of 3	5 of 9
Q27E N37M Y97E	not detected	0 of 3	2 of 9
Q27Y T59M R99G	20 nM	3 of 3	2 of 9
Q27S L30R K36V	11 nM	3 of 3	0 of 9
Q27D E32A R99Y	29 µM	2 of 3	0 of 9
S26Y Q27P S28M	8.0 nM	3 of 3	2 of 9
Q27S K36N Q96K	1.5 µM	3 of 3	0 of 9
Q27G S28E L100S	25 nM	3 of 3	2 of 9
Q27N R34S A40K	not detected	0 of 3	2 of 9
Q27F V39D T59F	not detected	0 of 3	2 of 9
Q27G A57E E61L	16 nM	3 of 3	1 of 9
S25P Q27G R60W	1.5 µM	1 of 3	0 of 9
Q27F L30M A57R	23 µM	2 of 3	5 of 9
Q27A S28G R34F	5.7 nM	3 of 3	0 of 9
Q27V K36P P101H	11 µM	1 of 3	0 of 9
Q27N N37P W56L	1.0 µM	3 of 3	0 of 9
Q27M R34N A40W	not detected	0 of 3	0 of 9
Q27L R34L	2.1 nM	3 of 3	2 of 9
Q27E E32I S103G	640 nM	1 of 3	1 of 9
Q27W W56C T59G	1.9 µM	2 of 3	5 of 9
Q27I S33C P101D	820 nM	1 of 3	0 of 9
Q27E L100H L102P	99 µM	2 of 3	2 of 9
Q27Y Y97L H98D	2.0 µM	3 of 3	7 of 9
K24M Q27V	13 nM	3 of 3	2 of 9
Q27L N37Y H98M	1.5 µM	3 of 3	1 of 9
Q27T E32W T59I	11 nM	3 of 3	1 of 9
Q27L H98T R99N	74 nM	3 of 3	1 of 9
Q27N Q96H	15 nM	3 of 3	1 of 9
Q27T R99A	58 nM	3 of 3	2 of 9
S25D Q27P L100P	not detected	0 of 3	0 of 9
Q27L A40K R99H	not detected	0 of 3	1 of 9
Q27V E32G R60I	1.1 µM	3 of 3	0 of 9
Q27C N37I R99F	not detected	0 of 3	0 of 9
Q27R R99A L102W	not detected	0 of 3	4 of 9
Q27E A57L Q95V	27 µM	1 of 3	2 of 9
Q27C T59V Y97F	190 nM	3 of 3	4 of 9
K24N Q27A N35P	810 nM	2 of 3	1 of 9
Q27L V29Y L102A	5.2 nM	3 of 3	2 of 9
Q27C T59G P101K	not detected	0 of 3	0 of 9
Q27E N35A A40V	5.8 µM	1 of 3	0 of 9
Q27D R34P W56K	620 pM	3 of 3	2 of 9
Q27D	38 nM	3 of 3	2 of 9
Q27Y S33F L102H	not detected	0 of 3	0 of 9
Q27D N37P A40E	not detected	0 of 3	4 of 9
S25T Q27K S58N	34 nM	3 of 3	1 of 9
K24D Q27P Q95R	4.7 µM	1 of 3	1 of 9
S26W Q27F S58K	42 µM	1 of 3	4 of 9
Q27H N37I Q95W	24 µM	1 of 3	3 of 9
Q27V S28D T59W	820 nM	3 of 3	3 of 9
K24D S25E Q27S	230 nM	2 of 3	0 of 9
S26A Q27E S62N	3.5 µM	2 of 3	3 of 9

For reference, 10 entries of the list once more:

{"changes": "Q27Y Y97L H98D", "apparent Kd": "2.0 µM", "detected": "3 of 3", "control signals": "7 of 9"}
{"changes": "Q27G A57E E61L", "apparent Kd": "16 nM", "detected": "3 of 3", "control signals": "1 of 9"}
{"changes": "S25P Q27G R60W", "apparent Kd": "1.5 µM", "detected": "1 of 3", "control signals": "0 of 9"}
{"changes": "Q27F L30M A57R", "apparent Kd": "23 µM", "detected": "2 of 3", "control signals": "5 of 9"}
{"changes": "Q27S K36N Q96K", "apparent Kd": "1.5 µM", "detected": "3 of 3", "control signals": "0 of 9"}
{"changes": "Q27D N37P A40E", "apparent Kd": "not detected", "detected": "0 of 3", "control signals": "4 of 9"}
{"changes": "S26A Q27E S62N", "apparent Kd": "3.5 µM", "detected": "2 of 3", "control signals": "3 of 9"}
{"changes": "Q27Y L30I W56F", "apparent Kd": "770 nM", "detected": "3 of 3", "control signals": "2 of 9"}
{"changes": "S26W Q27F S58K", "apparent Kd": "42 µM", "detected": "1 of 3", "control signals": "4 of 9"}
{"changes": "Q27E N37M Y97E", "apparent Kd": "not detected", "detected": "0 of 3", "control signals": "2 of 9"}

Empty control strains, which show no peptide, gave a signal in 18% of pairings with library AAYL50; the median was 15 µM and 95% of these signals were weaker than 970 nM. No background was subtracted. The control count says in how many pairings with the empty strains this scFv gave a signal.